target: hCB1 (Homo sapiens, UniProt P21554); test: functional fluorescent CB1 activated Gαq16-coupled intracellular calcium mobilization assay in CHO-K1 cells; type: cell-based; parameters: expressed in transfected cells; host or cells: CHO-K1 (membranes); conditions: not given

Amino acid sequences for entries named in this document (tags omitted).
UniProt P21554, whole entry: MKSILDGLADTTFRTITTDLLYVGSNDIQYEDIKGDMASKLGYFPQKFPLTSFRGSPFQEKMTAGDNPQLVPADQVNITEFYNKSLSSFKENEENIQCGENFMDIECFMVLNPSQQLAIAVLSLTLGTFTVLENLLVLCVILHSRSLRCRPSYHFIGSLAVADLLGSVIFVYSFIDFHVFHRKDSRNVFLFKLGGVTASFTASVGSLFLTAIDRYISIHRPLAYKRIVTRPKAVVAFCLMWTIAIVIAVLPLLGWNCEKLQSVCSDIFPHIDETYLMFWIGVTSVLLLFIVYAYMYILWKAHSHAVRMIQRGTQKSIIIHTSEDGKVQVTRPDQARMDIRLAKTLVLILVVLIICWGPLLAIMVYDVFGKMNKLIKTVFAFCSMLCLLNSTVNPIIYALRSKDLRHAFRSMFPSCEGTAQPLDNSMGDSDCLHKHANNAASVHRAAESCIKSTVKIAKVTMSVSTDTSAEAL

Row | SMILES | Kb [nM]
1 | O=C(Nc1ccccc1F)NC1CCN(c2ncnc3c2nc(-c2ccccc2Cl)n3-c2ccc(OC(F)F)nc2)CC1 [Compound 21, 3-{1-[8-(2-Chlorophenyl)-9-[6-(difluoromethoxy)pyridin-3-yl]-9H-purin-6-yl]piperidin-4-yl}-1-(2-fluorophenyl)urea] | 240
2 | O=C(Nc1ccc(OC(F)F)nc1)NC1CCN(c2ncnc3c2nc(-c2ccccc2Cl)n3-c2ccc(Cl)cc2)CC1 [Compound 25, 3-{1-[8-(2-Chlorophenyl)-9-(4-chlorophenyl)-9H-purin-6-yl]piperidin-4-yl}-1-[6-(difluoromethoxy)pyridin-3-yl]urea] | 25

same assay, conditions: calcium mobilization, CHO-K1 cells; average of 3-6 measurements; read-out: Apparent antagonist dissociation constant (Ke) at hCB1

Row | SMILES | Kb [nM]
3 | O=C(NCC1CCCCC1)NC1CCN(c2ncnc3c2nc(-c2ccccc2Cl)n3-c2ccc(OC(F)F)nc2)CC1 [Compound 17, 3-{1-[8-(2-Chlorophenyl)-9-[6-(difluoromethoxy)pyridin-3-yl]-9H-purin-6-yl]piperidin-4-yl}-1-(cyclohexylmethyl)urea] | 77
4 | O=C(Nc1ccccc1F)NC1CCN(c2ncnc3c2nc(-c2ccccc2Cl)n3-c2ccc(C(F)(F)F)nc2)CC1 [Compound 20, 3-{1-[8-(2-Chlorophenyl)-9-[6-(trifluoromethyl)pyridin-3-yl]-9H-purin-6-yl]piperidin-4-yl}-1-(2-fluorophenyl)urea] | 250
5 | O=C(Nc1ccc(F)cc1)N1CCN(c2ncnc3c2nc(-c2ccccc2Cl)n3-c2ccc(Cl)cc2)CC1 [Compound 43, 4-[8-(2-Chlorophenyl)-9-(4-chlorophenyl)-9H-purin-6-yl]-N-(4-fluorophenyl)piperazine-1-carboxamide] | 2
6 | O=C(Nc1ccc(OC(F)F)nc1)N1CCN(c2ncnc3c2nc(-c2ccccc2Cl)n3-c2ccc(Cl)cc2)CC1 [Compound 44, 4-[8-(2-Chlorophenyl)-9-(4-chlorophenyl)-9H-purin-6-yl]-N-[6-(difluoromethoxy)pyridin-3-yl]piperazine-1-carboxamide] | 13
7 | O=C(Nc1ccccc1F)N1CCN(c2ncnc3c2nc(-c2ccccc2Cl)n3-c2ccc(Cl)cc2)CC1 [Compound 56, 4-[8-(2-Chlorophenyl)-9-(4-chlorophenyl)-9H-purin-6-yl]-N-(2-fluorophenyl)piperazine-1-carboxamide] | 2
8 | O=C(Nc1ccc(F)cc1F)N1CCN(c2ncnc3c2nc(-c2ccccc2Cl)n3-c2ccc(Cl)cc2)CC1 [Compound 57, 4-[8-(2-Chlorophenyl)-9-(4-chlorophenyl)-9H-purin-6-yl]-N-(2,4-difluorophenyl)piperazine-1-carboxamide] | 10
9 | O=C(C1COc2ccccc2O1)N1CCN(c2ncnc3c2nc(-c2ccccc2Cl)n3-c2ccc(Cl)cc2)CC1 (stereo not shown) [Compound 61, 8-(2-Chlorophenyl)-9-(4-chlorophenyl)-6-[4-(2,3-dihydro-1,4-benzodioxin-2-ylcarbonyl)piperazin-1-yl]-9H-purine] | 6.1
10 | CCS(=O)(=O)N1CCN(c2ncnc3c2nc(-c2ccccc2Cl)n3-c2ccc(Cl)cc2)CC1 [Compound 78, 8-(2-Chlorophenyl)-9-(4-chlorophenyl)-6-[4-(ethylsulfonyl)piperazin-1-yl]-9H-purine] | 17
11 | CCCS(=O)(=O)N1CCN(c2ncnc3c2nc(-c2ccccc2Cl)n3-c2ccc(Cl)cc2)CC1 [Compound 79, 8-(2-Chlorophenyl)-9-(4-chlorophenyl)-6-[4-(propylsulfonyl)piperazin-1-yl]-9H-purine] | 2.4
12 | O=S(=O)(C1CC1)N1CCN(c2ncnc3c2nc(-c2ccccc2Cl)n3-c2ccc(Cl)cc2)CC1 [Compound 84, 8-(2-Chlorophenyl)-9-(4-chlorophenyl)-6-[4-(cyclopropylsulfonyl)piperazin-1-yl]-9H-purine] | 17
13 | CS(=O)(=O)N1CCN(c2ncnc3c2nc(-c2ccccc2Cl)n3-c2ccc(Cl)cc2)CC1 [Compound 86, 8-(2-Chlorophenyl)-9-(4-chlorophenyl)-6-[4-(methylsulfonyl)piperazin-1-yl]-9H-purine] | 3.4
